# According to PubChem BioAssay (NCATS):
# The entries are a selection whose mix differs from that of the whole data set. Records with an inconclusive call do not appear. Calls of active or inactive are those of the source. Unless noted, calls follow the shape of the dose curve; as a rule, active = well fitted curve in the direction sought with a large enough effect; inconclusive = small, poorly fitted or top-dose-only effect, or another doubt; inactive = no such curve, though single readings can be large; an effect the other way counts as inactive or inconclusive.
# How the values were obtained:
# [1] = biological target: Mitogen-activated protein kinase 10 (Mus musculus) (UniProt Q61831); test: JNK3 AlphaScreen Assay (AID 530; active = well fitted curve in either direction with a large enough effect, not every such curve was filed as active;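 also: kinase came from lysate of stimulated human HepG2 cells; signal reports phosphorylation of biotinylated GST-cJun 1-79 at Ser73 with 10 µM ATP; % is scaled to controls: 0 for no effect and ±100 for the full control effect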); conditions: JNK3 lysate, c-Jun phosphorylation; at 11.4 µM (top of the series) unless noted
# Method in brief: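 Compound titrations were preincubated 15 minutes at room temperature with substrate, antibody and pre-activated JNK3-containing HepG2 lysate. Reactions were started with 10 uM ATP and stopped with EDTA-containing bead buffer for AlphaScreen detection.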
# [2] = Cell Viability - N2a (AID 540); conditions: N2a mouse neuroblastoma cell viability; at 92.2 µM (top of the series);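 also: plate controls were DMSO alone for no effect and tamoxifen control for full effect; nearly all actives have a fitted effect of over 45% in size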
# Method in brief: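 Mouse neuroblastoma N2a cells, 1500/well, exposed to compounds 40 h at 37 °C in complete medium. Viability measured as cellular ATP by CellTiter-Glo luminescence; AC50 from Hill fits of concentration-response.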
# [3] = Cell Viability - HUV-EC-C (AID 542); also: % is scaled to controls: 0 for no effect and ±100 for the full control effect; nearly all actives have a fitted effect of over 35% in size
# Method in brief: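 HUV-EC-C human vascular endothelial cells, 1000/well, exposed to compound for 40 hr at 37 °C in complete medium. Intracellular ATP was read by CellTiter-Glo luminescence. AC50 came from Hill-equation fits of concentration-response data.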
# [4] = Cell Viability - H-4-II-E (AID 543); also: potency is read from the fitted curve at half-maximal effect; nearly all actives have a fitted effect of over 35% in size
# Method in brief: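 Rat hepatoma H-4-II-E cells, 1500 per well, treated 40 h at 37 °C in complete medium. Cellular ATP read by CellTiter-Glo luminescence; AC50 from Hill fits of concentration-response.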
# [5] = Cell Viability - SH-SY5Y (AID 544); also: nearly all actives have a fitted effect of over 55% in size
# Method in brief: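 SH-SY5Y human neuroblastoma cells (1500/well) incubated 5 h, then compound-treated 40 h at 37 °C in complete medium. Viability read as intracellular ATP by CellTiter-Glo luminescence after 20 min; AC50 from Hill-equation fits of qHTS concentration-response.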
# [6] = Cell Viability - Mesenchymal (AID 546); conditions: mesenchymal cells viability, qHTS; at 91.7 µM (top of the series);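 also: cells exposed to compound for 40 hours before reading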
# Method in brief: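 AC50 values reflect the drop in intracellular ATP in a human kidney mesenchymal line derived from normal glomeruli. Treatment lasts 40 hr at 37 °C in complete medium, and the signal comes from CellTiter-Glo luminescence.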
# [7] = Cellular Toxicity (caspase-3) HepG2 (AID 654); conditions: HepG2 caspase-3 activation, luminescence, 0% = DMSO only, 100% = tamoxifen; at 92.2 µM (top of the series);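 also: cells exposed to compound for 16 hours before reading; 0% = DMSO alone and 100% = caspase signal from 100 µM tamoxifen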
# Method in brief: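 HepG2 cells (1500/well) were treated 16 h at 37 °C in complete medium, then caspase 3/7 activity was read by Caspase-Glo luminescence. Data were normalized to DMSO and 100 uM tamoxifen; AC50 came from Hill-equation fits of qHTS concentration-response.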
# [8] = Cellular Toxicity (caspase-3) Jurkat (AID 655); conditions: Jurkat caspase-3 activation, luminescence, DMSO = 0%, tamoxifen = 100%; at 92.2 µM (top of the series);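 also: cells exposed to compound for 16 h at 37 °C before reading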
# Method in brief: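 Luminescent caspase-3/7 readout (aminoluciferin substrate cleavage) in human T-cell leukemia Jurkat cells after 16 hr compound exposure. Concentration-response normalized to DMSO and 100 uM tamoxifen; AC50 by standard Hill equation.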
# [9] = Cellular Toxicity (caspase-3) HUV-EC-C (AID 656); conditions: HUV-EC-C cells, caspase-3 activation (apoptosis), vehicle = 0, 100 µM tamoxifen = 100%; at 92.2 µM (top of the series)
# Method in brief: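 Luminescent caspase-3/7 activation (aminoluciferin substrate cleavage) in HUV-EC-C cells after 16 hr compound exposure, 37°C. Signal normalized to DMSO basal and 100 uM tamoxifen as 100%; AC50 from concentration-response fitted with the Hill equation.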
# [10] = Cellular Toxicity (caspase-3) SHSY5Y (AID 657); conditions: SH-SY5Y caspase-3 activation, DMSO zero, 10 µM staurosporine = 100%; at 91.7 µM (top of the series)
# Method in brief: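 Luminescent caspase-3/7 readout (aminoluciferin release) in SH-SY5Y cells after 16 h compound exposure in complete medium. Activity scaled between DMSO basal and 10 uM staurosporine as 100%; concentration-response fitted to Hill equation for AC50.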
# [11] = Cellular Toxicity (caspase-3) BJ (AID 658); conditions: BJ fibroblasts, luminescence, normalized: DMSO 0%, staurosporine 100%; at 91.7 µM (top of the series)
# Method in brief: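 Readout: Caspase-Glo 3/7 luminescence increase in BJ cells after 16 hr treatment at 37 °C. Staurosporine and tamoxifen served as positive controls; AC50 values came from Hill modelling of data normalized to DMSO and 10 uM staurosporine.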
# [12] = Cellular Toxicity (caspase-3) MRC-5 (AID 659); conditions: MRC-5 cells, luminescence, normalized: DMSO 0%, 10 µM staurosporine 100%; at 91.7 µM (top of the series)
# Method in brief: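 Concentration-dependent caspase 3/7 activation is measured in human normal lung fibroblasts (MRC-5) following 16-hour treatment. AC50 values come from standard Hill-equation modeling of luminescence normalized to DMSO and 10 uM staurosporine.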
# [13] = Cellular Toxicity (caspase-3) Mesangial (AID 660); conditions: mesangial cells, normalized: DMSO 0%, 100 µM tamoxifen 100%; at 91.7 µM (top of the series);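 also: cells exposed to compound for 16 h before the caspase read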
# Method in brief: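 Human renal glomerular mesangial cells, 1000/well, 5 h at 37 C before 16 h compound treatment. Caspase-Glo 3/7 luminescence after 20 min; normalized to DMSO and 100 uM tamoxifen, AC50 from Hill fit.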
# [14] = Cellular Toxicity (caspase-3) SK-N-SH (AID 661); conditions: SK-N-SH caspase-3 activation, qHTS, DMSO as zero, staurosporine as full; at 91.7 µM (top of the series)
# Method in brief: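 Human SK-N-SH neuroblastoma cells, 1500/well, were exposed to compounds for 16 hours at 37 °C. Caspase-Glo 3/7 luminescence was normalized to DMSO (basal) and 10 uM staurosporine (100%), and AC50 came from a Hill fit.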
# [15] = Cellular Toxicity (caspase-3) H-4-II-E (AID 663); conditions: H-4-II-E rat hepatoma, scaled: DMSO 0%, 100 µM tamoxifen 100%; at 92.2 µM (top of the series);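 also: cells exposed to compound for 16 hr before readout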
# Method in brief: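 Apoptosis induction is scored as increased luminescence from caspase 3/7 substrate cleavage in rat hepatoma H-4-II-E cells exposed to compound for 16 hr. Activity is scaled between DMSO and 100 uM tamoxifen.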
# [16] = Cellular Toxicity (caspase-3) Hek293 (AID 664); conditions: HEK293 caspase-3 activation, DMSO = 0%, 100 µM tamoxifen = 100%; at 92.2 µM (top of the series);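 also: cells exposed to compound for 16 h at 37 °C before readout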
# Method in brief: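 HEK293 cells in complete medium treated 16 h at 37 °C, then Caspase-Glo 3/7 luminescence read after 20 min at room temperature. Normalized to DMSO and 100 uM tamoxifen; AC50 from Hill fit of concentration-response.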
# [17] = Cellular Toxicity (caspase-3) N2a (AID 665); conditions: N2a cells, luminescence, normalized: DMSO 0%, 10 µM staurosporine 100%; at 92.2 µM (top of the series);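 also: compound exposure lasted 16 h at 37 °C before readout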
# Method in brief: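 Mouse N2a neuroblastoma cells, 1500 per well, treated 16 h at 37 °C in complete medium; caspase-3/7 activity by Caspase-Glo luminescence after 1 h. Normalized to DMSO and 10 uM staurosporine; AC50 from Hill fits.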
# [18] = Cellular Toxicity (caspase-3) NIH 3T3 (AID 666); conditions: NIH 3T3 caspase-3 activation, apoptosis/toxicity, 0% DMSO, 100% is 100 µM tamoxifen; at 92.2 µM (top of the series);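 also: caspase signal read after 16 h compound exposure; 0% = DMSO basal and 100% = 100 µM tamoxifen stimulation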
# Method in brief: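 Mouse NIH 3T3 fibroblasts (1000/well) treated 16 h at 37 C; caspase-3/7 activity measured by Caspase-Glo 3/7 luminescence after 20 min. Normalized to DMSO and 100 uM tamoxifen; AC50 from Hill fits.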
structure (smiles),measurement,setting,value
Cc1cc([N+](=O)[O-])cc([N+](=O)[O-])c1O,"activity change, negative = inhibition",[1],inactive: -1.19% [at 57.1 µM]
same,"activity change, negative = cytotoxicity",[2],active: -115%
same,Potency,[3],inactive
same,Potency,[4],active: 39.8 µM
same,Potency,[5],inactive
same,"activity change, negative = cytotoxicity",[6],inactive: -7.68%
same,caspase-3 activation,[7],inactive: -2.08%
same,caspase-3 activation,[8],inactive: -1.76%
same,caspase-3 activation,[9],inactive: -7.14%
same,caspase-3 activation,[10],inactive: 0.976%
same,caspase-3 activation,[11],inactive: -0.613%
same,caspase-3 activation,[12],inactive: 0.76%
same,caspase-3 activation,[13],inactive: -0.243%
same,caspase-3 activation,[14],inactive: -1.97%
same,caspase-3 activation,[15],inactive: 12.8%
same,caspase-3 activation,[16],inactive: -0.149%
same,caspase-3 activation,[17],inactive: 4.16%
same,caspase-3 activation,[18],inactive: -17%
